Values quoted from earlier work in patent US11229230B2, “Antioxidant-enriched multivitamin composition and methods of use” (Callion Pharma, LLC, priority 2016, dated 2022).

Details: individuals suffering from chronic childhood cholestasis

## d-α-tocopherol polyethylene glycol 1000 succinate [TPGS]
  vitamin D absorption: increase vitamin D absorption
